Test results taken from patent US20240368185A1, “MACROCYCLIC AZOLOPYRIDINES” (Fulcrum Therapeutics, Inc., priority 2021, published 2024).

Assay: Salt screening: XRPD form after exposure to 95%+ relative humidity for one day
Format: physicochemical
Parameters: key: Am = amorphous
Conditions: slurry solvent EtOH; solid dried under vacuum at 50° C., then 95%+ relative humidity for one day
Experimental: A stock solution of Form P material of (S)-12-fluoro-4-(2-methylpyridin-3-yl)-7a,8,13,14-tetrahydro-7H-[1,2,4]triazolo[4′,3′:1,6]pyrido[3,2-b]benzofuro[4,3-fg][1,4]oxazonine, free base, was prepared in 2,2,2-trifluoroethanol (50.8 mg/mL). Stock solutions of counter ion were prepared in EtOH.
Salt formation was carried out at room temperature in 2 mL vials. 25.4 mg of Form P free base material (500 μL stock solution) and 1.1 equivalents of counter ion were added to each vial. Solvent was allowed to evaporate at 40° C. overnight with stirring. […] These vials were kept on the hotplate to continue evaporating (temperature increased to 50° C.), while the more-dry samples were dried further under vacuum for 3 hours at 50° C. The samples still containing solvent at the end of the day were left to stir at 30° C. over the weekend to finish evaporating the solvent. These samples were dried further under vacuum for 3 hours at 50° C.
Approximately 20 volumes of solvent (0.5 mL) was added to each vial containing the dried solids. The three solvents selected were EtOH, EtOAc, and IPA:water (9:1 vol). Once solvents were added, the mixtures (or solutions) were stirred at room temperature. When slurries were formed, the solids were filtered for XRPD analysis.
XRPD analysis was done in three stages. XRPD of the wet cake was done for all collected samples. […]

Substance: (S)-12-fluoro-4-(2-methylpyridin-3-yl)-7a,8,13,14-tetrahydro-7H-[1,2,4]triazolo[4′,3′:1,6]pyrido[3,2-b]benzofuro[4,3-fg][1,4]oxazonine [Hydrochloric acid (5)]
- XRPD Form humidity: Am
